{"source": "patent US20250185666A1", "about": "“Root-Targeted Delivery of Agrochemicals using Natural Microbial Carriers” (priority 2023, published 2025)", "system": "UC-1 cultures", "assay": "Screen of candidate formulations for operational toxicity to UC-1 cultures", "settings": "concentrated formulation"}
{"substance": "Spinosad", "values": [{"measurement": "Operational toxicity to UC-1 cultures (live protists remain viable and actively moving)", "result": "satisfied all criteria"}]}
